Biological target: P2Y purinoceptor 1 (Homo sapiens, UniProt P47900)
Assay: Agonist activity at P2Y1 receptor expressed in 1321N1 cells assessed as cytosolic calcium level
Format: functional, cell-based

The chains behind the UniProt entries cited, without tags or fusion partners. Where a name states a change or a piece, a line headed by the entry shows the natural chain unless it says otherwise.
UniProt P47900: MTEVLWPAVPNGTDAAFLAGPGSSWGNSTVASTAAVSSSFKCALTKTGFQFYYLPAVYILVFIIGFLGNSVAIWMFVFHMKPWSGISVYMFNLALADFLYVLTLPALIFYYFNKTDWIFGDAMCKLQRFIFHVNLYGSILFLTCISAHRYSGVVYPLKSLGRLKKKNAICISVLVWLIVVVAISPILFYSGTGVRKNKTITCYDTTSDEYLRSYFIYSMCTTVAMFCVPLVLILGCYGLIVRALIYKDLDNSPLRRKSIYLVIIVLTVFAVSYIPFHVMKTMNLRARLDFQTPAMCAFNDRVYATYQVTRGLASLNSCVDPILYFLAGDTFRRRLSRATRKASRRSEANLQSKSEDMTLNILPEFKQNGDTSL

SMILES: CSc1nc(N)c2ncn([C@@H]3O[C@H](COP(=O)(O)OP(=O)(O)O)[C@@H](O)[C@H]3O)c2n1
- EC50: 12.3 nM

Reference: ChEMBL document CHEMBL1138233, “New iantherans from the marine sponge Ianthella quadrangulata: novel agonists of the P2Y(11) receptor” (J Med Chem, 2007)
